Binding signal data for 13 molecules are collected here from paper PMC7723054.

The list shows a part of the results.

Holding throughout (assay): FOREST: bead pull-down of RNA structure library v1, barcode microarray; U1A/LIN28A: 20 mM HEPES pH 7.5, 80 mM KCl, 20 mM NaCl, 10% glycerol, 2 mM DTT, 0.1 ug/uL BSA, 4 C; BG4/CIRBP/DHX36: 10 mM Tris-HCl pH 7.5, 100 mM KCl (or LiCl),; high values mean tight binding
One assay concerns the target T1, LIN28A (human?, UniProt Q9H9Z2 1-209).
T1 sequence: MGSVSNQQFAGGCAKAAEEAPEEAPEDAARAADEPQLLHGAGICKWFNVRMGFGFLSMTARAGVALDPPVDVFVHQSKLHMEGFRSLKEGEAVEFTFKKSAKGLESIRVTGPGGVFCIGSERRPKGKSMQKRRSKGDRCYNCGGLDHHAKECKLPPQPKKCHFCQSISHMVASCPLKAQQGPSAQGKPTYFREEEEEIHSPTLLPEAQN

The next assay addresses T2, CIRBP (Homo sapiens, UniProt Q14011 1-172).
T2 sequence: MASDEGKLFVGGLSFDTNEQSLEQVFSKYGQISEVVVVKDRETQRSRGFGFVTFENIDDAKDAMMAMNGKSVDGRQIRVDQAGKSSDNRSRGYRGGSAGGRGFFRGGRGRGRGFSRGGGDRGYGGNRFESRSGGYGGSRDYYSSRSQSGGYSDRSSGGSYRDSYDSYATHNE

The next assay deals with T3, DHX36 (Homo sapiens, UniProt Q9H2U1 1-1008).
T3 sequence: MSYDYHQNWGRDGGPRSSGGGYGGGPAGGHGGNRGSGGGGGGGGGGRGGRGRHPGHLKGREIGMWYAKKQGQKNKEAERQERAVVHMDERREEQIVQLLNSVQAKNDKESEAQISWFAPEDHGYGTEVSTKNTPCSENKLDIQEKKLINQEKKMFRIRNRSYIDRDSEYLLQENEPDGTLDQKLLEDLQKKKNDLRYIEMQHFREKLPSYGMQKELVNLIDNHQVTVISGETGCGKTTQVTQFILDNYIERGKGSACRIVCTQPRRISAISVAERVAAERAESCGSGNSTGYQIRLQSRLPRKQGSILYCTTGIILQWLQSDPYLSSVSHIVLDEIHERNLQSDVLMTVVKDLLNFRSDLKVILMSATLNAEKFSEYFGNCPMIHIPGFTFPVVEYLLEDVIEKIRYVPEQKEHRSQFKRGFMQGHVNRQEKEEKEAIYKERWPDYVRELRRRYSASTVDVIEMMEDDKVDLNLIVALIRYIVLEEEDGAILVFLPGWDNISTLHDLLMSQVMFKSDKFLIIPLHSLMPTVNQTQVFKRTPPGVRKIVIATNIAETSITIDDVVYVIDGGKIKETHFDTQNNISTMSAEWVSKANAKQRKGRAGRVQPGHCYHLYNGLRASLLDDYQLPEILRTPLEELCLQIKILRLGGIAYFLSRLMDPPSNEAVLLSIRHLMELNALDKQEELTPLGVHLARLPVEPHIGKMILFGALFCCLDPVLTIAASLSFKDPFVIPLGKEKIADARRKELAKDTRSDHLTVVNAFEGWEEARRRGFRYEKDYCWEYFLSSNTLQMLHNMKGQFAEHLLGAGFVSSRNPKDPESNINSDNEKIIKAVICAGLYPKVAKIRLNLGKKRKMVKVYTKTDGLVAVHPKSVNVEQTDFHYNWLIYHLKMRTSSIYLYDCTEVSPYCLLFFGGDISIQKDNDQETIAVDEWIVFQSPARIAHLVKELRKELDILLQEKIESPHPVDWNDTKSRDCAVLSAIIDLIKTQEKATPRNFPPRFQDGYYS

B1: hsa-mir-4442 (structured_RNA)
RNA: GGGAAAAGGCUCAACGUGAUGCUCGAAAGGUGUACGAAGUUUCAGCCGGUGUGCAAAUGUGUGUGUGCGGUGUUAUGCCGGCUGAAGCUUCGUGCAC
With B1, the binding signal in the assay with LIN28A is 0.268 z-score; with CIRBP, -0.135 z-score; in the assay with DHX36, -0.192 z-score.

B2: hsa-mir-194-1 (structured_RNA)
RNA: GGGAUACAUUUGAGGGAGUUGCCACAUAGGUGUACGAAGUUUCAGCUGGACUGUGUACCAAUUUCCAGCUGAAGCUUCGUGCAC
As to B2, the binding signal with LIN28A was 0.268 z-score; with CIRBP, 0.498 z-score; with DHX36, -0.316 z-score.

B3: hsa-mir-3192 (structured_RNA)
RNA: GGGAAACAAGGCGCUAUGAAAUGGAUACGGUGUACGAAGUUUCAGCAGUGGAAAAAGUUCUUUUCUUCCUCUGCUGAAGCUUCGUGCAC
For the molecule B3, the binding signal was 0.269 z-score in the assay with LIN28A, 2.54 z-score with CIRBP and 0.534 z-score in the assay with DHX36.

B4: hsa-mir-450b (structured_RNA)
RNA: GGGACACUGGAGUUCUAUGACUAACGCCGGUGUACGAAGUUUCAGCUGAAUAUGUAAUAUAAGUGUAUUGGCUGAAGCUUCGUGCAC
For the molecule B4, the values for the binding signal with LIN28A, in the assay with CIRBP and with DHX36 were 0.259 z-score, -0.083 z-score and -0.428 z-score, respectively.

B5: hsa-mir-3201 (structured_RNA)
RNA: GGGAAACGAUAACUGUGUCCGCCAGACCGGUGUACGAAGUUUCAGCAAAUAAGAGGCUAGGAUUGCCUCUUAUUUGCUGAAGCUUCGUGCAC
As to B5, the binding signal stood at 0.265 z-score in the assay with LIN28A, 0.964 z-score in the assay with CIRBP and 1.27 z-score in the assay with DHX36.

B6: hsa-mir-3960 (structured_RNA)
RNA: GGGAAGAUCGACGGAUUGUGCAACAGACGGUGUACGAAGUUUCAGCCGCUAGUAGUGGCGGCUGAAGCUUCGUGCAC
B6: the values for the binding signal with LIN28A, with CIRBP and with DHX36 were 0.267 z-score, 0.958 z-score and 0.396 z-score, respectively.

B7: hsa-mir-3689b (structured_RNA)
RNA: GGGAAAGAAUUUGCCGUCGGUGCCACAUGGUGUACGAAGUUUCAGCCUGGGAGGUGUGAUCCCGUGCUUCCUGGGCUGAAGCUUCGUGCAC
Regarding B7, the binding signal in the assay with LIN28A is 0.252 z-score; in the assay with CIRBP, 0.867 z-score; with DHX36, -0.351 z-score.

B8: hsa-mir-4693 (structured_RNA)
RNA: GGGAAGGUGACCAUAGUUAAAUGCGAUCGGUGUACGAAGUUUCAGCGUCACAAAUUCAAAUAAAGUGAGGCUGAAGCUUCGUGCAC
On to B8, for which the binding signal with LIN28A was 0.268 z-score; with CIRBP, 1.14 z-score; with DHX36, 0.0169 z-score.

B9: hsa-mir-889 (structured_RNA)
RNA: GGGACGAACCUCAAGGGUCCAAGCAUGUGGUGUACGAAGUUUCAGCAUGGUCUCUAUAUUUAUGAUGAUUAAGCUGAAGCUUCGUGCAC
In the case of B9, the binding signal with LIN28A is 0.252 z-score; with CIRBP, 0.0878 z-score; in the assay with DHX36, -0.429 z-score.

B10: hsa-mir-367 (structured_RNA)
RNA: GGGACCUAGCGGCGAUGGACUGCUUAACGGUGUACGAAGUUUCAGCAACUCUGUUGAAUAUAAAUUGGAAUUGCUGAAGCUUCGUGCAC
Consider B10, for which the values for the binding signal with LIN28A, in the assay with CIRBP and in the assay with DHX36 were 0.262 z-score, -0.448 z-score and -0.0567 z-score, respectively.

B11: hsa-mir-6861 (structured_RNA)
RNA: GGGAAAACAGAAGAGCCAAUCGCCCUUGGGUGUACGAAGUUUCAGCUCCAGGGCUCCUGACACCUGGAGCUGAAGCUUCGUGCAC
Take B11: the binding signal is 0.266 z-score in the assay with LIN28A, 1.47 z-score in the assay with CIRBP and -0.632 z-score with DHX36.

B12: hsa-mir-877 (structured_RNA)
RNA: GGGCAAAGACAACGGCGCACAAUUUGCUGGUGUACGAAGUUUCAGCAGGGGACACGGGCAAAGACUUGGGGGUUCCUGGGACCCUCAGACGUGUGUCCUCUGCUGAAGCUUCGUGCAC
Take B12: the values for the binding signal with LIN28A, with CIRBP and with DHX36 were 0.266 z-score, -0.318 z-score and 0.877 z-score, respectively.

B13: hsa-mir-4705 (structured_RNA)
RNA: GGGAAGAAAUUACUGCUGAGUGGGCAGAGGUGUACGAAGUUUCAGCCUGUGAUAACAACUCAGGCUGAAGCUUCGUGCAC
As to B13, the binding signal stood at 0.266 z-score in the assay with LIN28A, 0.368 z-score with CIRBP and 0.184 z-score with DHX36.
